Experimental data: ChEMBL document CHEMBL1144455, “A small molecule-kinase interaction map for clinical kinase inhibitors” (Nat Biotechnol, 2005)

Sequences of proteins named here, by UniProt entry; tags and fusion partners are left off. A change or cut given only in a name is not applied to a line headed by its entry.
UniProt P53779: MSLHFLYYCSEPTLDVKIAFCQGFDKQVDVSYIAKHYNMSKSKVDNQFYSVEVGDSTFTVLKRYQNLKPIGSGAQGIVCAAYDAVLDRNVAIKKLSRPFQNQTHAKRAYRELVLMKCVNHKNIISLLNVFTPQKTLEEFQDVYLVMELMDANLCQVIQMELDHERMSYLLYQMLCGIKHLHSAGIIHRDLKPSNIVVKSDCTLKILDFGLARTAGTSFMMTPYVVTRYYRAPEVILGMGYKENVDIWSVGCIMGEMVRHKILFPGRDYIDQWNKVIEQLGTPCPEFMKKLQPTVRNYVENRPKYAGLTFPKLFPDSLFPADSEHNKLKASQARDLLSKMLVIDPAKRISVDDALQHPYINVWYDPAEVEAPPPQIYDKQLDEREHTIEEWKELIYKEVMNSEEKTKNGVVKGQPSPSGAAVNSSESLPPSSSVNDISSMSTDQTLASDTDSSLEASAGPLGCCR

Assays:
Ephrin type-A receptor 8 = target: T1, Ephrin type-A receptor 8 (Homo sapiens, UniProt P29322)
T1 sequence (P29322 whole entry): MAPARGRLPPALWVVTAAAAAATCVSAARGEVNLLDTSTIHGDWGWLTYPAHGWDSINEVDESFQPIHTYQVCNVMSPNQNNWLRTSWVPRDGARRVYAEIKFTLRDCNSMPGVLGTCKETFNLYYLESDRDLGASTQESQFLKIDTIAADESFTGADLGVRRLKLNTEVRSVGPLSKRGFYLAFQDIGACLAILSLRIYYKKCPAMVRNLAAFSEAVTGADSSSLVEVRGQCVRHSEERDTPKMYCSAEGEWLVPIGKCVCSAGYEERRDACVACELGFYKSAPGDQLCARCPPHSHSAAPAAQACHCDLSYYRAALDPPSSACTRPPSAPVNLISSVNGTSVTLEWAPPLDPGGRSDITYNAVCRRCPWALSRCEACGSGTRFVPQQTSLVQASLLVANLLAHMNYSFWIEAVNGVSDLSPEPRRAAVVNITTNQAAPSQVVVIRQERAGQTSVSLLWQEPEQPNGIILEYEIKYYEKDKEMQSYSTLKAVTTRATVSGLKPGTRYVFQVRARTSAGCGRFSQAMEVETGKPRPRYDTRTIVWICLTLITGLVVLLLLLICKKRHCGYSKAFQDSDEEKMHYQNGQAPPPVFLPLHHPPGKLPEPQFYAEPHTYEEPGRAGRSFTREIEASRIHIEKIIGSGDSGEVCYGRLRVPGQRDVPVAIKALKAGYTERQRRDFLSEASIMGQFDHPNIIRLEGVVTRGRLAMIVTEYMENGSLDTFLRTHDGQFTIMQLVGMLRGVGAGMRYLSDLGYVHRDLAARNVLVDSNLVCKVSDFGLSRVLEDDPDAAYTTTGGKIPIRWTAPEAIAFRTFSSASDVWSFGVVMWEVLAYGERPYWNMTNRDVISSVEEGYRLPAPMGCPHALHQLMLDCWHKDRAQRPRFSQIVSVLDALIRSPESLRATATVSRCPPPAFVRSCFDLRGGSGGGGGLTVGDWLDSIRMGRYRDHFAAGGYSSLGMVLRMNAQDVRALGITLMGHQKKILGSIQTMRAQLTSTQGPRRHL

[1] = target: Mitogen-activated protein kinase 10 (Homo sapiens, UniProt P53779)

Compound	Kd (Ephrin type-A receptor 8) [µM]	Kd [1] [µM]
CCOc1cc2ncc(C#N)c(Nc3ccc(F)c(Cl)c3)c2cc1NC(=O)/C=C/CN(C)C [PELITINIB]	0.4	–
Oc1c2ccccc2c2c3c(cccc13)N=N2 [SP-600125]	–	0.022
